Laboratory results published in US8697095B1, “Inhibition of replication of oncogenic herpesviruses” (priority 2004, dated 2014).

Tested on: KSHV

Cc1c(C(=O)NN2CCCCC2)nn(-c2ccc(Cl)cc2Cl)c1-c1ccc(Cl)cc1 [SR141716A]
Effect on spontaneous KSHV reactivation (BCBL-1, without THC): no effect
Reversal of inhibition of linear DNA synthesis by THC (both antagonists, 1.25 μg/ml THC): reversed
Reversal of THC inhibition of KSHV DNA synthesis (single receptor antagonist): not reversed
